pIC50: −log10 of the molar value.
How the values were obtained:
c-Kit = c-Kit (Homo sapiens (Human), UniProt P10721); assay: Inhibition of c-Kit kinase activity (HTRF KinEASE-TK); conditions: read-out: KIT IC50, biochemical
Procedure: (§1) Inhibition of c-Kit, PDGFRα, PDGFRβ, CSFIR and FLT3 Kinase Activity
(§2) Compounds were evaluated to determine the potency with which they inhibit the kinase activity of the following panel of tyrosine kinases: c-Kit (SignalChem, Product #: K06-11BG), PDGFRα (SignalChem, Product #: P12-18G), PDGFRβ (SignalChem, Product #: P13-11G), CSFIR (SignalChem, Product #: C74-11G) and FLT3 (Invitrogen, Product #: PR4666C). Activity was determined as a function of phosphorylated biotinylated TK peptide generated by the transfer of phosphate from ATP as measured by the use of the HTRF KinEASE-TK assay kit (Cisbio, Product #: 62TKOPEJ). Levels of phosphorylated biotinylated TK peptide (Part 61TKOBLC of KinEASE assay kit) are quantified by its capture by phosphor-TK-Antibody-Cryptate (Part of KinEASE assay kit) and XL665-labeled Streptavidin (Part 610SAXLG of KinEASE assay kit) followed by measurement of Time-Resolved Fluorescence Resonance Energy Transfer (TR-FRET) signal. […] The TR-FRET signal was quantified by measuring the ratio of emission at 665 nm to 620 nm after excitation at 320 nm by reading on a PerkinElmer Envision multimode reader. Compound potencies (IC50 values) were determined using a standard 4-parameter non-linear regression fit.

Protein sequences, listed by entry. Tags and fused reporters are not part of them. Lines headed by an entry give the natural chain unless they say otherwise; changes in a name come on top.
UniProt P10721: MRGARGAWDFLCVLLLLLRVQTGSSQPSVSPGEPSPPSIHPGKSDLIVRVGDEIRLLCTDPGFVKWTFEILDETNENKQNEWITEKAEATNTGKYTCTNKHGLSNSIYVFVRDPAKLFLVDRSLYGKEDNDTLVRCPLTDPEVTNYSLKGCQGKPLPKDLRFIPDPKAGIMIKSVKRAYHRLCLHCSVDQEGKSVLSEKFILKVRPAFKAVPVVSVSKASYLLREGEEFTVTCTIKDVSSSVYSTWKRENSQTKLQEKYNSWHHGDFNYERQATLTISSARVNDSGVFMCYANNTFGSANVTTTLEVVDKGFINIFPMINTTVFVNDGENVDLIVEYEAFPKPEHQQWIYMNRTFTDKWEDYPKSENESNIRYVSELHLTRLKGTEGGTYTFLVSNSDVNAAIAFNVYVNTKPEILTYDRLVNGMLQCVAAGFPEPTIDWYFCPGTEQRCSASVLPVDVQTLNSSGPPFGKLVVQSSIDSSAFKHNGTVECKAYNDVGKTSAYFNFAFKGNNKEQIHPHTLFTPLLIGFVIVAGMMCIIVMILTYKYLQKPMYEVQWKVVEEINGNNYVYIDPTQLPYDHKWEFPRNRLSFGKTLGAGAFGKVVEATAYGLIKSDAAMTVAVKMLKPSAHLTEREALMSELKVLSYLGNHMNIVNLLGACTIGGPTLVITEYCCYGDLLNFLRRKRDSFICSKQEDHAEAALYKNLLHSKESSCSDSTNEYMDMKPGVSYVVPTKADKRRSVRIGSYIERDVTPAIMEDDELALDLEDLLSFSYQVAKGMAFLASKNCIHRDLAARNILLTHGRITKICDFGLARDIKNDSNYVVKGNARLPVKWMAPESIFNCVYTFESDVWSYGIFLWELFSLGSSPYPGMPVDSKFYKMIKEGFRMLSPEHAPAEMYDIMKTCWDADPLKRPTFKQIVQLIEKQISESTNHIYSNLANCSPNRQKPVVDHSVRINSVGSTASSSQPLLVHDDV
UniProt P16234: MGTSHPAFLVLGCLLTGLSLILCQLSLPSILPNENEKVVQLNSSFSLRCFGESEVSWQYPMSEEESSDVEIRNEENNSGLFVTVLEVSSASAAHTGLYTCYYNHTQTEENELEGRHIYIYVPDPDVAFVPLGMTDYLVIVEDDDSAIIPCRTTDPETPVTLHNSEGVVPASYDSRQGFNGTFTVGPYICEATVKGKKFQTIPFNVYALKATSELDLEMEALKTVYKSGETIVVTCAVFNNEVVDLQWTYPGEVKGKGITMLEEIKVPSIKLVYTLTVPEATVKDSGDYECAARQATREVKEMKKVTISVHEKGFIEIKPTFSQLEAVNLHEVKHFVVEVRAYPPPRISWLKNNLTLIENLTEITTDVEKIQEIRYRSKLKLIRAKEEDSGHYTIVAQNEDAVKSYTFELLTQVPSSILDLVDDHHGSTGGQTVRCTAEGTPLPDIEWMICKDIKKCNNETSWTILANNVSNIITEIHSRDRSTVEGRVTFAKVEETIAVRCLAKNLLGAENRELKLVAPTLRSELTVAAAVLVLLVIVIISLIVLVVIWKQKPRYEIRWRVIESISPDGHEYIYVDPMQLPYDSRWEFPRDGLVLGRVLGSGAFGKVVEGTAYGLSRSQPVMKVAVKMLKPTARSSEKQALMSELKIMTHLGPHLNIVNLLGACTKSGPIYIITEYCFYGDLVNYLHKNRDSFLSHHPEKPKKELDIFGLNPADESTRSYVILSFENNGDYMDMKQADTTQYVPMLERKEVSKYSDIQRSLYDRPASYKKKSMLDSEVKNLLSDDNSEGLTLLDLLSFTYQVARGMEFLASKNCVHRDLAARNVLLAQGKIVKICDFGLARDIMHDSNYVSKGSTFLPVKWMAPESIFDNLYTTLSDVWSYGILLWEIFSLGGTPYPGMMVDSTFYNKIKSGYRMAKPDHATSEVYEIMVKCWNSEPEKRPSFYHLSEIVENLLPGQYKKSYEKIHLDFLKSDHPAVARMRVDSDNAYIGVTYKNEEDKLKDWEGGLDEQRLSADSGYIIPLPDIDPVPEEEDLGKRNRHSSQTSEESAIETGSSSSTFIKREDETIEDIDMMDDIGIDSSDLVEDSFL
UniProt P36888: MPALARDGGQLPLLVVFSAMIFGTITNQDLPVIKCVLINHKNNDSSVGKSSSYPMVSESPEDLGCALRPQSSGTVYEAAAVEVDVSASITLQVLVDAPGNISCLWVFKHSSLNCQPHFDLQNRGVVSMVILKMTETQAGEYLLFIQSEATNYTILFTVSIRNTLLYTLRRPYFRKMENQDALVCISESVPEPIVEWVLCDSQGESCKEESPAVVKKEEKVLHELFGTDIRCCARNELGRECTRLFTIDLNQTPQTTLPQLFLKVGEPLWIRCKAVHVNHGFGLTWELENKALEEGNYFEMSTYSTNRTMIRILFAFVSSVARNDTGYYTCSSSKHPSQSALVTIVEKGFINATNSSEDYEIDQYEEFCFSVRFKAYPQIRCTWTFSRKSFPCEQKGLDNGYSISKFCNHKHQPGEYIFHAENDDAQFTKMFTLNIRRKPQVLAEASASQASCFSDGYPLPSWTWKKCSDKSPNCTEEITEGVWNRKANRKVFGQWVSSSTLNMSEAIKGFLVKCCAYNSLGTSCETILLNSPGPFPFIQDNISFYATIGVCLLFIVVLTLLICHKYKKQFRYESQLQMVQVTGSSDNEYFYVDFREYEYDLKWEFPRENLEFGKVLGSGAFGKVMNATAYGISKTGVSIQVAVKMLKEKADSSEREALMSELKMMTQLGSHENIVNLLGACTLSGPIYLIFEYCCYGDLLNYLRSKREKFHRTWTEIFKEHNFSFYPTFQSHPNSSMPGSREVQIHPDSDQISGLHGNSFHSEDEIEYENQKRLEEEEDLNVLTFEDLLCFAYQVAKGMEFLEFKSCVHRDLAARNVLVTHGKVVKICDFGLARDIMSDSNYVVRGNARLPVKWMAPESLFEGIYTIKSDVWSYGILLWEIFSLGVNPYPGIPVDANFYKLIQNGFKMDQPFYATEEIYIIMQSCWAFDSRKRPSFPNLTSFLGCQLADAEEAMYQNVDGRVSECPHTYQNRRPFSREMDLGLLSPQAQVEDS

PDGFRα = PDGFRα (Homo sapiens (Human), UniProt P16234); assay: Inhibition of PDGFRα kinase activity (HTRF KinEASE-TK); conditions: read-out: PDGFRα IC50, biochemical
Procedure: as §1, §2

FLT3 = FLT3 (Homo sapiens (Human), UniProt P36888); assay: Inhibition of FLT3 kinase activity (HTRF KinEASE-TK); conditions: read-out: FLT3 IC50, biochemical
Procedure: as §1, §2

[1] = system: Phospho-KIT (Y703) in M07e cells; assay: Phospho-KIT (Y703) cellular assay in M07e cells; type: cell-based; conditions: read-out: M07e Cell IC50
Procedure: Phospho-KIT (Y703) Cellular Assay in M07e Cells
The day prior to assay, M07e cells (DSMZ, catalog #ACC 104) were serum starved. Cells were centrifuged and cell pellet resuspended in OptiMEM (Gibco, catalog #31985062) to a density of 1×10^6-2.5×10^6 cells per mL. Cells were then incubated overnight at 5% CO2 and 37° C. in an appropriately sized flask. On the day of the experiment, an 11 point, half log titration of test compound was pre-dispensed into 96-well round bottom polypropylene plates (Corning, catalog #3365). The serum starved M07e cells were centrifuged and resuspended to a cell density of 1×10^6 cells per mL with DPBS (Gibco, catalog #14190-144). Live/Dead Green Fixable viability dye (Invitrogen, catalog #L34970) was added as 1 μL/1 mL of cell suspension. Cells were then incubated in the dark at 4° C. for 30 min. Cells were washed by centrifugation and resuspension with DPBS+0.5% BSA (Gemini Bio Products, catalog #700110/100, 30% BSA solution). […] Samples were then read by flow cytometry. […] The geometric mean of AF647 of the live cell population was recorded. Percentage maximum activity in each test well was calculated based on DMSO (100% activity) and positive control treated cell wells (0% activity). The potencies (IC50 values) of test compounds were determined using a standard 4-parameter non-linear regression fit.

N-[5-[(5-cyclopropyloxypyridin-2-yl)carbamoyl]-4-fluoro-2-methylphenyl]-2-[[(3R)-oxolane-3-carbonyl]amino]-1,3-thiazole-5-carboxamide
pIC50 (c-Kit): > 7.00 | pIC50 (PDGFRα): < 6.00 | pIC50 (FLT3): < 6.00 | pIC50 [1]: > 7.00

— patent US20250145606A1 (Arcus Biosciences, Inc., priority 2023, published 2025)
